Drawing on patent US7575910B2, “Method for producing L-fuculose and method for producing L-fucose” (priority 2004, dated 2009), this text covers Km for one substance.

In the data set the test system is NADH. The experiment in a line: purified protein, by the assay type. Particulars: pH 8.0; 30.0 °C.

As usually defined, the Km is the concentration of substrate that gives half-maximal velocity. Turning to “NOX (NADH oxidase) (Gluconobacter thailandicus NBRC 3257)”, the Michaelis-Menten constant (Km) turned out to be 29 µM.
